Literature values as cited in paper PMC5344956 (Cancer Chemotherapy and Pharmacology, 2017).

Test system: BCR–ABL
Details: preclinical in vitro studies ref 7, 9; cited from earlier work

## Cc1ccc(C(=O)Nc2ccc(CN3CCN(C)CC3)c(C(F)(F)F)c2)cc1C#Cc1cnc2cccnn12.Cl [Ponatinib, 3-(imidazo[1,2-b]pyridazin-3-ylethynyl)-4-methyl-N-(4-((4-methylpiperazin-1-yl)methyl)-3-(trifluoromethyl)phenyl)benzamide hydrochloride]
  concentration that suppresses the emergence of any single mutation: 40 nM
